Publication PMC7951137 (ACS chemical neuroscience, 2021)
Read-outs that look alike come from different tables or passages of the source.

Sequences of proteins named here, by UniProt entry; tags and fusion partners are left off.
UniProt P32245, whole entry: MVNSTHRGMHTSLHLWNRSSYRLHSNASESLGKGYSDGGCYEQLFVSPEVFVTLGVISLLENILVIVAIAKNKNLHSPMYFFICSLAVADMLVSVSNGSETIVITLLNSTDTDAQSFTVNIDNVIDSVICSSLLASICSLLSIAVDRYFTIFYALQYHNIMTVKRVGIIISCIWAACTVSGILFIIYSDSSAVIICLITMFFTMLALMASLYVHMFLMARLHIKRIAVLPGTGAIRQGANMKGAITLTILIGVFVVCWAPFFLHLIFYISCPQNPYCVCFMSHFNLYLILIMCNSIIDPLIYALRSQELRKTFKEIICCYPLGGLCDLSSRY

Key:
[1] = molecular target: T1, human melanocortin-4 receptor (hMC4R), wild type, N-terminal FLAG-tagged (human, UniProt P32245 1-332); assay: radioligand binding
[2] = molecular target: T1, human melanocortin-4 receptor (hMC4R), …; assay: radioligand binding; remark: listed apart in the source

- IC50 [1]: 0.12 µM
- IC50 [2]: 0.044 µM
Binder: PRFFHAFP (DPro at position 8; cyclized head-to-tail through the DPro-Pro motif) [MDE3–119-13c]
